Here are results for 3 substances from US5686423A, “Di-and tri-peptide mimetic compounds for Parkinson's disease” (Department of Health, the Executive Yuan, Republic of China, priority 1996, dated 1997).

The conditions of series [1]: 37° C., after 90 minutes of incubation, n=2.
The next series deals with vas deferences. The conditions noted are these: continuous perfusion of 1 mg/mL for one min. The procedure: (§1) Each experiment was repeated at least three times. The mean responses before and after drug treatment were compared by means of Student's t test, with p<0.05, indicating significance. The contractile force of both pulmonary artery and vas deferences was elicited after continuous perfusion of dopamine (1 mg/mL) for one min.
(§2) Male guinea pigs (250-350 g) were stunned and bled. The vas deferences and pulmonary artery were isolated. A piece of the smooth muscle (about 1 mm wide and 7 mm long) was dissected. The isolated part was mounted vertically on an organ bath (1 mL capacity), kept at 35° C. and superfused with a physiological solution at a constant rate of about 2 mL /min (35° C.). The normal physiological solution had the following composition: NaCl (117 mM), KCl (5.9 mM), CaCl2 (2.4 mM), MgCl2 (1.2 mM), D-glucose (11.8 mM) and Tris 20 (pH 7.4 at 35° C.), aerated with 100% oxygen. Drugs tested were perfused for one min and then superfused with normal physiological solution or otherwise indicated. Tension was recorded isometrically by means of a Grass FT03 tranducer connected to a Grass model 7E polygraph or by a Gould UC2 transducer connected to a Gould 2200S recorder. Each experiment was repeated at least three times with different preparations.

For a further series, the system named is pulmonary artery. The conditions noted are these: continuous perfusion of 1 mg/mL for one min. The procedure:
as §1, §2

Series [2] is described as follows: Single dose oral and intra-artery bioavailability study in rabbits. The conditions noted are these: 10 mg/Kg.
For series [3] the following is noted: rat jejunal perfusion, perfusate 0.1 mM.
The mark [4] stands for this setting: intra-artery (i.a.), six rabbits, mean ± s.e.m.

Turning to “D-p-hydroxyphenylglycine-L-proline-L-dopa [compound 2d]”, the “fraction of compound remaining intact in rat intestinal mucosa suspension” value in series [1] amounted to 94±0.03%. Besides, in the series with vas deferences, the “contraction of vas deferences (resting tension)” value is “no significant contraction”. In the series on pulmonary artery, the “contraction of pulmonary artery (resting tension)” value is “no significant contraction”.
Turning to D-phenylglycine-L-dopa [compound 1a], in series [2] (setting [4]), the AUC is 563.05 ± 107.06 µg·min/mL and the t1/2 is reported as 51 ± 26 min. Besides, the bioavailability in series [2] (oral, rabbits) is reported as 76 (±24) %.
Regarding D-phenylglycine-L-proline-L-dopa [2c], the “plasma concentration, fold higher than that of L-dopa” value in series [3] is listed as 60-100 fold.
